This test has as its system MK-801 (dizocilpine)-induced impaired spontaneous alternation behavior in mice. As to conditions: male ddY mice, 0.03-0.1 mg/kg oral administration, MK-801 0.15 mg/kg i.p., Y-maze 8 min.

On to `O=c1[nH]nc(CCc2cc(F)cc(F)c2)cc1O` [Example 24, 6-[2-(3,5-difluorophenyl)ethyl]-4-hydroxypyridazin-3(2H)-one], for which the “spontaneous alternation rate relative to the Control group” value was “significantly increased”.
